## Yeast mating assay 2: variants of the scFv Ab-95

The target is the same throughout: PDVDLGDISGINAS, from the HR2 region of SARS-CoV-2 spike.

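The parent was found by panning a naive human phage display library on the peptide. In library AAYL52, one, two or three CDR residues were substituted; doubles and triples were drawn at random. The assay is AlphaSeq: two haploid yeast populations carry antibody and antigen on their surface. Binding brings cells together so that they mate, and sequencing counts the barcode pairs among the diploids. Scores were corrected for input abundance and mapped to Kd with protein pairs of known affinity run in the same pool. Mating was done three times.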

Parent scFv Ab-95: VH joined to VL by a (GGGGS)3 linker. Changes lie in the light chain CDRs alone.
VH: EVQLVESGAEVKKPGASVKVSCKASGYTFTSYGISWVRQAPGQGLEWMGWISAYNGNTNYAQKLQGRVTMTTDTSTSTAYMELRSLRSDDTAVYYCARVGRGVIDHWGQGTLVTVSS
VL: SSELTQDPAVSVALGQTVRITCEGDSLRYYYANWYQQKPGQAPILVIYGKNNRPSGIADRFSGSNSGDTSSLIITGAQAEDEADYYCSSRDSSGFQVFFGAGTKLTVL

Variants are written as CDR1, CDR2 and CDR3 of the light chain (limits as in the source). Parent: EGDSLRYYYAN, GKNNRPS, SSRDSSGFQVF. Every variant below is changed at K50 of the VL (sequential numbering). The read-out is the apparent dissociation constant on a log10 scale (nM): the lower, the stronger. Averages over replicates are reported, and they cover detected replicates only. A pair that was not seen in that replicate is written "nd"; this usually means weak binding, but a binder can also be missed. The list is sorted by this average, lowest first, undetected variants last.

For EGDSLRGYYAN / GDNNRPS / SSGDSSGFQVF, the assay gave 1.12, 1.24, 0.28 (mean 0.88; controls 2 of 9).
For EGDSLRYAYAN / GLNNRPS / SSRDSSQFQVF, the assay gave 1.30, 1.15, 0.63 (mean 1.03; controls 1 of 9).
For EGDSLRYEYAN / GDNNRIS / SSRDSSGFQVF, the assay gave 1.60, 1.57, 1.53 (mean 1.57; controls 4 of 9).
For EGDSLRYHYAN / GVNNRPS / SSRPSSGFQVF, the assay gave 1.92, 1.86, 1.44 (mean 1.74; controls 4 of 9).
For EGDSLRYYYAN / GNAIRPS / SSRDSSGFQVF, the assay gave 2.30, 2.06, 1.62 (mean 1.99; controls 5 of 9).
For EGDSLRYMYAN / GLNNRPS / SSRDSSGTQVF, the assay gave 2.28, 2.16, 2.07 (mean 2.17; controls 5 of 9).
For EGDSLRYYYAN / GGNNRPS / SSEDSSGFQDF, the assay gave 2.23, 2.30, 2.06 (mean 2.20; controls 4 of 9).
For EGDSLRYYYAN / GANNRPS / MSRDSSGFEVF, the assay gave 2.69, 2.94, 2.50 (mean 2.71; controls 5 of 9).
For EGDSLRYYYAN / GSSNRVS / SSRDSSGFQVF, the assay gave 2.67, 3.06, 2.59 (mean 2.77; controls 3 of 9).
For EGDSLRYYYAN / GSGNRPS / SSRDSSNFQVF, the assay gave 3.04, 3.31, 2.04 (mean 2.80; controls 3 of 9).
For EGDSLRYYYAN / GSYNRPS / SSRDSAGFQVF, the assay gave 3.69, 2.83, 2.42 (mean 2.98; controls 2 of 9).
For EGDPLTYYYAN / GMNNRPS / SSRDSSGFQVF, the assay gave nd, 3.01, nd (controls 1 of 9).
For EGDSLRYYYAN / KQNNRPS / SSRDSSGFQVF, the assay gave 2.82, 3.47, 2.83 (mean 3.04; controls 1 of 9).
For EGDSLRYYYAN / YFNNRPS / SSRDSSGKQVF, the assay gave 3.03, 3.18, nd (mean 3.11; controls 2 of 9).
For EGHSLRYYYAN / GPNNRPS / SSRDSSGFYVF, the assay gave 3.09, 2.74, 3.52 (mean 3.12; controls 5 of 9).
For EGGSLRYYYAN / GSNNRPS / SQRDSSGFQVF, the assay gave 3.00, 3.35, 3.09 (mean 3.15; controls 2 of 9).
For EGDSLRYYYAN / GCNNRPS / SSRDSSGEQVF, the assay gave 2.83, 4.39, 2.57 (mean 3.26; controls 4 of 9).
For EGDSRRYYYAN / GDNNYPS / SSRDSSGFQVF, the assay gave 3.06, nd, 3.51 (mean 3.29; controls 2 of 9).
For EGDSLRYYYAN / QLNNRPS / SSRASSGFQVF, the assay gave 3.29, nd, nd (controls 5 of 9).
For EGDSLRYYYAN / VENNRPS / SSRDSSGFYVF, the assay gave 3.50, nd, 3.30 (mean 3.40; controls 6 of 9).
For EGDSLRYYYDN / GYNYRPS / SSRDSSGFQVF, the assay gave 3.52, nd, nd (controls 7 of 9).
For EGDSLRYYYAN / GQQNRPS / SSRDSSGFQVF, the assay gave 2.78, 4.42, nd (mean 3.60; controls 0 of 9).
For EGDSLRYYYAN / DQNNRPS / YSRDSSGFQVF, the assay gave 3.68, nd, nd (controls 1 of 9).
For EGDSLRIYYAN / GSTNRPS / SSRDSSGFQVF, the assay gave nd, 3.54, 3.84 (mean 3.69; controls 1 of 9).
For EEDSLRYYYAN / GINNRPS / ESRDSSGFQVF, the assay gave nd, 3.68, 3.71 (mean 3.70; controls 3 of 9).
For EGDSLRYLYAN / GRNNRPS / SSRDSSGFQHF, the assay gave nd, nd, 3.71 (controls 3 of 9).
For EGDSLDYYYAN / GWNNRPS / SSRDSSGWQVF, the assay gave 3.88, 3.80, 3.55 (mean 3.74; controls 5 of 9).
For FGDSLRYYYAN / GHNDRPS / SSRDSSGFQVF, the assay gave 3.91, 3.37, 4.05 (mean 3.78; controls 3 of 9).
For EGDSLRYYYAN / GGNNLPS / SSRDSSGFQPF, the assay gave 3.43, 3.78, 4.28 (mean 3.83; controls 2 of 9).
For EGDSLRRYYAN / GWNNRPS / SSRDSSGFQVR, the assay gave 4.33, 2.90, 4.30 (mean 3.84; controls 2 of 9).
For YGDSLRYYYAN / GCNNRPR / SSRDSSGFQVF, the assay gave 3.17, 3.92, 4.63 (mean 3.90; controls 4 of 9).
For EGDSLRYYYAN / GVNNRPW / SSRDSSGFHVF, the assay gave 4.87, 3.04, 3.84 (mean 3.92; controls 3 of 9).
For EGDSLRYYYCN / GHPNRPS / SSRDSSGFQVF, the assay gave 3.93, nd, nd (controls 4 of 9).
For EGDSLRYYYAN / GFNNRPT / SSRDSSFFQVF, the assay gave nd, 4.42, nd (controls 0 of 9).
For EGDSLRYYYAN / TCNNRPS / SSRDSSEFQVF, the assay gave 5.36, nd, 3.65 (mean 4.51; controls 2 of 9).
For EGDSLRYYYAG / GGNNRPS / SSRDSCGFQVF, the assay gave nd, nd, nd (controls 1 of 9).
For EGDSLRYYYAD / GWNNRPS / SSRDSSLFQVF, the assay gave nd, nd, nd (controls 1 of 9).
For EGDSLRYYYAV / GMNNRPS / SSRDSSGFCVF, the assay gave nd, nd, nd (controls 1 of 9).

Again, the first 3 entries without any signal:

With EGDSLRYYYAG / GGNNRPS / SSRDSCGFQVF the result was nd, nd, nd (controls 1 of 9).
With EGDSLRYYYAD / GWNNRPS / SSRDSSLFQVF the result was nd, nd, nd (controls 1 of 9).
With EGDSLRYYYAV / GMNNRPS / SSRDSSGFCVF the result was nd, nd, nd (controls 1 of 9).

Three control strains display no target. For library AAYL52, 28% of the pairings with them gave a signal, with a median of 3.91 and one signal in twenty below 2.90, so weak values seen in few replicates may be background. For each scFv, signals with the empty controls are counted beside the result. Parent in this assay: reference entry 2.31, copy in this library 2.25.

Data: MIT Lincoln Laboratory AlphaSeq set, Engelhart et al. 2022, doi:10.1038/s41597-022-01779-4, as distributed in FLAb.